Apparent affinities of Ab-14 variants for a coronavirus HR2 peptide

The target is the same throughout: PDVDLGDISGINAS, from the HR2 region of SARS-CoV-2 spike.

The variants keep the heavy chain, the linker and the frameworks of Ab-14 (scFv order VH, the linker GGGGSGGGGSGGGGS, VL).
VH: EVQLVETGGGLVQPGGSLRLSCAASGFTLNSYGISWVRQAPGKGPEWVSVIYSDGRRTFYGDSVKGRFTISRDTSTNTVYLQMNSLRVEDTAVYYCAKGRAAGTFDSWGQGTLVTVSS
VL: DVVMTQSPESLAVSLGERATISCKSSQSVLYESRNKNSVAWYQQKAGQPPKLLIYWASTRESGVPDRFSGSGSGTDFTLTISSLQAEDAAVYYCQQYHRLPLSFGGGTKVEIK

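The parent was found by panning a naive human phage display library on the peptide. Library AAYL50 holds single substitutions and randomly drawn double and triple substitutions in the CDRs. In AlphaSeq, yeast of one mating type display the scFv and yeast of the other type display the target. Binding brings cells together so that they mate, and sequencing counts the barcode pairs among the diploids. Each replicate has its own calibration line, from reference interactions of the BCL2 family. Mating was done three times.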

Each variant is given by its three light chain CDRs, as the data file delimits them; those of the parent are KSSQSVLYESRNKNSVA, WASTRES, QQYHRLPLS.
Values are log10 of the apparent Kd in nM; lower means stronger binding.
An entry "n.d." has no value in the source: the pair was not observed among the diploids in that replicate. This suggests poor binding but is not conclusive.

| # | CDR-L1 | CDR-L2 | CDR-L3 | log10 Kd, replicates | empty controls |
|---|---|---|---|---|---|
| 1 | KSSQAVLDESRNFNSVA | WASTRES | QQYHRLPLS | 0.44 0.62 0.68 | 1 of 9 (3.08) |
| 2 | NSSQSVLYERRNKNSVA | WASTRES | QQNHRLPLS | 5.10 2.89 3.58 | 2 of 9 (3.71) |
| 3 | KSSQSVLYESRRKNSVA | WASTRES | QQYQGLPLS | 3.69 2.93 5.16 | 3 of 9 (4.04) |
| 4 | KSSQSVLYESRNKNSVA | WARTRDS | QQYHGLPLS | n.d. 4.48 n.d. | 0 of 9 |
| 5 | ESSQSVLYESRNKNSVA | WASTRER | QQYHRLPLS | 1.88 1.61 1.57 | 0 of 9 |
| 6 | KSSQSVLYESRNKNFVA | WASTRES | QQYHRLPLI | n.d. n.d. n.d. | 0 of 9 |
| 7 | KSSQSVLYESRNVNSVG | WASTRES | RQYHRLPLS | n.d. n.d. n.d. | 0 of 9 |
| 8 | WSSQSVLYESRNKNSVA | WASTRES | QGYKRLPLS | 4.41 4.91 4.14 | 2 of 9 (4.13) |
| 9 | KSSQSVLYHSRNKPSVN | WASTRES | QQYHRLPLS | n.d. n.d. n.d. | 1 of 9 (3.33) |
| 10 | KSSQSHLYESRNENSVA | WASTRES | QQRHRLPLS | n.d. n.d. n.d. | 0 of 9 |
| 11 | KKSGSVLYESRNKNSVA | WASTREE | QQYHRLPLS | 1.29 1.21 1.42 | 3 of 9 (4.34) |
| 12 | KSSQSVLYESRNKNSVE | WASDRES | QQYHRLCLS | n.d. n.d. 4.91 | 1 of 9 (4.38) |
| 13 | KSSQSVLYERRYKNSVA | WASTRES | QTYHRLPLS | 3.23 2.99 3.12 | 2 of 9 (4.79) |
| 14 | KSSQSVLYESRNKNRVA | WASCRES | QQYHRLFLS | n.d. n.d. n.d. | 0 of 9 |
| 15 | KSSQSVLYMGRNKNSVA | WASRRES | QQYHRLPLS | 6.23 n.d. n.d. | 4 of 9 (4.26) |
| 16 | KSSQSVVYESRNKNSVA | WRSTRES | QQYHRNPLS | n.d. n.d. n.d. | 3 of 9 (2.87) |
| 17 | KSSQSVLYESRNKNSVA | WAQTRES | QQVHALPLS | n.d. n.d. n.d. | 0 of 9 |
| 18 | KSSQSVLYESRNKNSVA | SASTRES | QQFHRLPLS | 0.12 0.41 0.26 | 3 of 9 (4.26) |
| 19 | KSSRSVLYESRNKNSVA | WASTRES | VQYHRYPLS | n.d. n.d. n.d. | 0 of 9 |
| 20 | KSSQEVLYISRNKNSVA | WASRRES | QQYHRLPLS | n.d. n.d. n.d. | 0 of 9 |
| 21 | KSSQSVLYESRNKNSEA | WAMTRES | QQGHRLPLS | n.d. 4.93 n.d. | 3 of 9 (3.73) |
| 22 | KSSQSVLIESRNRASVA | WASTRES | QQYHRLPLS | 0.80 1.23 1.38 | 0 of 9 |
| 23 | KSNQSVLYESRNKNSVA | WASTRIS | QQYHRLPLS | 1.15 1.41 1.63 | 2 of 9 (4.59) |
| 24 | KSLQSVLYESRNKNSVA | WASTRQQ | QQYHRLPLS | 1.40 1.72 1.86 | 1 of 9 (2.86) |
| 25 | KSSQSVLYESCNKNSVA | WASTRES | AQFHRLPLS | 1.39 1.52 0.89 | 3 of 9 (3.36) |
| 26 | KSSQHVLYESRIKNSVA | WASTREH | QQYHRLPLS | 1.65 1.79 1.93 | 0 of 9 |
| 27 | KSSQSVLYESRNKNSVA | AASTRES | HQYHRCPLS | 5.06 n.d. 4.49 | 1 of 9 (4.06) |
| 28 | KSSESELYESRNKNSVA | WASTRES | QQYARLPLS | 0.64 0.95 0.71 | 0 of 9 |
| 29 | KSSQSVLYESRNKNSVA | NASTRES | QQYNRCPLS | 0.73 0.87 0.72 | 6 of 9 (5.05) |
| 30 | KSSQSQLYESRNKNSVA | WASTRLS | MQYHRLPLS | 0.97 1.00 1.08 | 0 of 9 |
| 31 | KSSQNVLYCSRNKISVA | WASTRES | QQYHRLPLS | n.d. 2.38 n.d. | 0 of 9 |
| 32 | KSSQSVLYESRNKNSVA | WASTRES | QKYHKLLLS | n.d. n.d. 4.49 | 4 of 9 (4.76) |
| 33 | KQSQSVLYESRNKNSVA | WASTRYS | QQYHRLPLS | 0.61 0.91 0.87 | 0 of 9 |
| 34 | KYSQSVLYENRNKNSVA | PASTRES | QQYHRLPLS | n.d. n.d. n.d. | 0 of 9 |
| 35 | KSSPFVLYESRNKNWVA | WASTRES | QQYHRLPLS | n.d. 4.43 n.d. | 0 of 9 |
| 36 | GSSKSVLYESRNKNSVA | WASTRES | WQYHRLPLS | n.d. 1.88 n.d. | 0 of 9 |
| 37 | GSSQSVLYMSRNVNSVA | WASTRES | QQYHRLPLS | n.d. n.d. n.d. | 0 of 9 |
| 38 | ISSQSVLYESRNKNSVA | WASTRES | QQYHELKLS | n.d. n.d. n.d. | 0 of 9 |
| 39 | KSSQSVLYESRNKYSVA | WASTRES | QQLHRLQLS | n.d. n.d. n.d. | 1 of 9 (3.71) |
| 40 | KREQSVLYESRNKNSVA | WASTRES | QQYHRLPRS | 1.10 1.18 1.48 | 1 of 9 (3.71) |
| 41 | KSSQSVLYNSRFKNSVA | WASTRES | VQYHRLPLS | n.d. n.d. n.d. | 0 of 9 |

Picked from the list: the 2 lowest averages where every replicate gave a value.

| CDR-L1 | CDR-L2 | CDR-L3 | log10 Kd, replicates | empty controls |
|---|---|---|---|---|
| KSSQSVLYESRNKNSVA | SASTRES | QQFHRLPLS | 0.12 0.41 0.26 | 3 of 9 (4.26) |
| KSSQAVLDESRNFNSVA | WASTRES | QQYHRLPLS | 0.44 0.62 0.68 | 1 of 9 (3.08) |

For reference, the parent read 0.65 as the reference entry and 1.68 as a member of this library.
Nonspecific signal, from three strains lacking the peptide, appeared in 18% of pairings of library AAYL50, centred on 4.19 (5% of these signals below 2.99); values are not corrected for it. Also given: how often the same scFv was detected with the empty control strains, with their mean in brackets.

Data: MIT Lincoln Laboratory AlphaSeq set, Engelhart et al. 2022, doi:10.1038/s41597-022-01779-4, as distributed in FLAb.